This is a selection; strong and weak results do not stand in their true shares. Records with an inconclusive call do not appear. Activity calls are given as the source filed them. Calls come from the whole dose curve; as a rule, active = well fitted inhibition curve with a large enough effect; inconclusive = small, poorly fitted or top-dose-only effect; inactive = no such curve, though single readings can be large or run the other way.
molecular target: Polyunsaturated fatty acid lipoxygenase ALOX15 (Homo sapiens) (UniProt P16050); assay: qHTS Assay for Inhibitors of 15-hLO (15-human lipoxygenase); details: purified 15hLO-1, xylenol orange hydroperoxide absorbance; series mostly up to 57.1 µM; activity change, negative = inhibition: at the top concentration; note: nearly all actives have a fitted effect of over 55% in size
% is set by controls: 0 for no effect and ±100 for the full control effect; potency is the fitted concentration of half-maximal effect.

Chains of the proteins cited; added tags and fusions are not shown. Lines headed by an entry give the natural chain unless they say otherwise; changes in a name come on top.
UniProt P16050: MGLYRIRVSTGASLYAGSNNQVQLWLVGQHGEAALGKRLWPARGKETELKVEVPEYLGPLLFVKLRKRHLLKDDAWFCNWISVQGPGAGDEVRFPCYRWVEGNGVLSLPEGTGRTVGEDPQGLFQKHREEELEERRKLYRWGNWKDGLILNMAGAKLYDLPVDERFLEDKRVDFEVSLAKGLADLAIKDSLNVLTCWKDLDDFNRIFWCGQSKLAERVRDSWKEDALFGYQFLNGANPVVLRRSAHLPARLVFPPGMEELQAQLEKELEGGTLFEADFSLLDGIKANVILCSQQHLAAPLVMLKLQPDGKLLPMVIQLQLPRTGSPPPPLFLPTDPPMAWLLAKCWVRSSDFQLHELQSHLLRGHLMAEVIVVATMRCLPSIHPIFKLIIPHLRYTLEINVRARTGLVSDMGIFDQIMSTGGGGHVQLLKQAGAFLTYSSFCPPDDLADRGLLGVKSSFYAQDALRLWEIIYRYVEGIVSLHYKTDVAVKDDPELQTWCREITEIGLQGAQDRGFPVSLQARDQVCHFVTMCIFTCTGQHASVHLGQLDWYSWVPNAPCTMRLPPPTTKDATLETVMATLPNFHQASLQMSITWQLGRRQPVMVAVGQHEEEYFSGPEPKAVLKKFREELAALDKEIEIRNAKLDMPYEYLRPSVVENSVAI

SMILES | activity change, negative = inhibition | Potency
CCc1nc2c(n1)c1c(non1O)c1c2no[n+]1[O-] | inactive: 3.49% | 
O=C(CO)Nc1ccc([As](=O)(O)O)cc1 | inactive: 6.5% [at 11.4 µM] | 
CN(C(=O)Cc1ccccc1)[C@@H]1CC[C@@]2(CCCO2)C[C@H]1N1CCCC1 |  | active: 3160 nM
CN(C(=O)Cc1ccc(Cl)c(Cl)c1)[C@H]1CCCC[C@@H]1N1CCCC1 | inactive | 
C(Cc1nn[nH]n1)c1nn[nH]n1 | inactive: 9.94% [at 11.4 µM] | 
[N-]=[N+]=NCC(O)CN=[N+]=[N-] (stereo not drawn) | inactive: 10.8% [at 11.4 µM] | 
O=[N+]([O-])c1ccc(C[As](=O)(O)O)cc1 | inactive: -0.942% [at 11.4 µM] | 
O=P1(Nc2nc3ccc(Cl)cc3s2)COc2ccccc2O1 (stereo not drawn) | inactive: -4.94% | 
COC(=O)c1cc2c(s1)N=C(c1ccccc1)N(C)P2(=O)N1CCOCC1 (stereo not drawn) | inactive: 13.1% | 
[N-]=[N+]=Nc1ccc([As](=O)(O)O)cc1 | inactive: -0.557% [at 11.4 µM] | 
Cc1cc([N+](=O)[O-])cc([N+](=O)[O-])c1O | inactive: -7.19% | 
O=C(OC1CN2CCC1CC2)c1cccc(Cl)c1 (stereo not drawn) | inactive: -0.491% | 
c1nnnn1CCn1cnnn1 | inactive: 2.28% | 
O=P(Nc1nccs1)(c1ccccc1)c1ccccc1 | inactive: 8.45% | 
C[C@@H](O)COc1ccc([As](=O)(O)O)cc1N | inactive: 3.6% [at 11.4 µM] | 
CN1CCC[C@H](OC(=O)C(c2ccccc2)c2ccccc2)C1 | inactive: 3.48% [at 11.4 µM] | 
Clc1n[nH]nc1-c1nn[nH][15n]1 | inactive: 1.63% | 
O=P1(Nc2ccccn2)COc2ccccc2OC1 | inactive: 16.6% | 
CN(CCCl)Cc1cc(Cl)c(NC2=NCCN2)c(Cl)c1 | inactive: 11.1% | 

SMILES | activity change, negative = inhibition | Potency
CN(C(=O)Cc1ccc(Cl)c(Cl)c1)[C@@H]1CCCC[C@H]1N1CCCC1 | inactive | 
Cc1nn(-c2ccccc2)c2c1P(=O)(N1CCOCC1)N(C)C(c1ccccc1)=N2 (stereo not drawn) | inactive: 2.97% | 
O=P1(Nc2ccc(Br)cn2)COc2ccccc2OC1 | inactive: -7.1% | 
O=P1(Nc2ncccn2)COc2ccccc2OC1 | inactive: 3.58% | 
O=[As](O)(O)c1ccc([As](=O)(O)O)cc1 | inactive: 0.359% [at 11.4 µM] | 
O=P(Nc1nccs1)(c1ccccc1)c1nc2ccccc2s1 (stereo not drawn) |  | active: 501 nM
CCOP1(=S)c2c(C)nn(CCC#N)c2N=C(c2ccccc2F)N1C (stereo not drawn) | inactive: -0.999% | 
CCOP1(=S)c2c(C)nn(CCC#N)c2N=C(c2ccc(F)cc2)N1C (stereo not drawn) | inactive: -13.3% | 
NC(=O)Nc1ccc([As](=O)(O)O)cc1 | inactive | 
O=C(CC(=O)c1ccccc1)O[C@H]1CN2CCC1CC2 | inactive: -6.17% [at 11.4 µM] | 
NS(=O)(=O)Cc1ccc([As](=O)(O)O)cc1 | inactive: -3.08% [at 11.4 µM] | 
NC(=O)Nc1cc([As](=O)(O)O)cc(I)c1O | inactive: 15.7% [at 11.4 µM] | 
O=C(OC1CN2CCC1CC2)C12CC3CC(CC(C3)C1)C2 (stereo not drawn) | inactive: -11% | 
O=[As]c1ccc(S(=O)(=O)NCCO)cc1 (stereo not drawn) | inactive: -0.41% [at 11.4 µM] | 
[N-]=[N+]=NCC(N)=O | inactive: 3.89% [at 11.4 µM] | 
CN(N=O)C(=N)N[N+](=O)[O-] | inactive: -2.14% | 
O=C(O)[C@@H](O)c1ccc([As](=O)(O)O)cc1 | inactive: 1.22% [at 11.4 µM] | 
O=C(COc1ccccc1)OC1CN2CCC1CC2 (stereo not drawn) | inactive: 5.46% | 
COP1(=S)c2c(C)nn(CCC#N)c2N=C(c2ccc(F)cc2)N1C (stereo not drawn) | inactive: 4.54% | 
